According to patent US9176117B2, “Macrophage hazardous material detection” (dated 2015):

System: Sentinel Cells (SC), stationary macrophages
Test: Sentinel Cell responses to energetic materials by real-time multi-label light microscopy (DIC, H33342 DNA, MitoTracker, ER-Tracker)
Details: for Sentinel Cell responses to control agents: SC independently exposed to each control agent

Compound	Sentinel Cell responses to control agents	primary Sentinel Cell responses observed (DMDNB at 5 nm in solution (88 ppt), FIGS. 9A-C)
C[S+](C)[O-]	No responses are observed	–
OCC(CO)(CO)CO	No responses are observed	–
CC(C)([N+](=O)[O-])C(C)(C)[N+](=O)[O-]	–	pronounced lobed nucleus and nucleus with tines, arborized nucleus, highly condensed chromosomes, and significantly increased nuclear envelope breakdown, mitosis, and emerge from tissue
